Numbers after ± are expanded uncertainties.
Assay: activity coefficient (dimensionless); of the first substance listed, at infinite dilution; xn = mol fraction of the nth substance listed
Settings: 101 kPa, Liquid, Chromatography, x1 = 0

In the case of CCCCOCCCC [dibutyl ether] + CCCCn1cc[n+](C)c1.COP(=O)([O-])OC, the activity coefficient (358.15 K) is reported as 26.8 ± 1.8, the activity coefficient (368.15 K) is reported as 26.2 ± 1.8 and the activity coefficient (378.15 K) is reported as 25.9 ± 1.8. For the same compound, the activity coefficient (388.15 K) was 25.5 ± 1.7.
For CCCCOCCCC [dibutyl ether] + CCCCn1cc[n+](C)c1.[Cl-], the activity coefficient (358.15 K) was 130 ± 8.9, the activity coefficient (368.15 K) was 125 ± 8.6 and the activity coefficient (378.15 K) was 118 ± 8.1. The activity coefficient (388.15 K) was 116 ± 8.
CCCCOCCCC [dibutyl ether] + CCCCn1cc[n+](C)c1.CS(=O)(=O)[O-] gave an activity coefficient (358.15 K) of 83.9 ± 5.8, an activity coefficient (368.15 K) of 82.1 ± 5.6 and an activity coefficient (378.15 K) of 81.5 ± 5.6. The activity coefficient (388.15 K) was 80.5 ± 5.5.
